According to article PMC5913127 (Scientific Reports, 2018):
Values belong to the substance of their own block, whether it stands above or below them.

By UniProt entry, the sequences of proteins in these tests, tags left out. Where a name states a change or a piece, a line headed by the entry shows the natural chain unless it says otherwise.
UniProt P05067: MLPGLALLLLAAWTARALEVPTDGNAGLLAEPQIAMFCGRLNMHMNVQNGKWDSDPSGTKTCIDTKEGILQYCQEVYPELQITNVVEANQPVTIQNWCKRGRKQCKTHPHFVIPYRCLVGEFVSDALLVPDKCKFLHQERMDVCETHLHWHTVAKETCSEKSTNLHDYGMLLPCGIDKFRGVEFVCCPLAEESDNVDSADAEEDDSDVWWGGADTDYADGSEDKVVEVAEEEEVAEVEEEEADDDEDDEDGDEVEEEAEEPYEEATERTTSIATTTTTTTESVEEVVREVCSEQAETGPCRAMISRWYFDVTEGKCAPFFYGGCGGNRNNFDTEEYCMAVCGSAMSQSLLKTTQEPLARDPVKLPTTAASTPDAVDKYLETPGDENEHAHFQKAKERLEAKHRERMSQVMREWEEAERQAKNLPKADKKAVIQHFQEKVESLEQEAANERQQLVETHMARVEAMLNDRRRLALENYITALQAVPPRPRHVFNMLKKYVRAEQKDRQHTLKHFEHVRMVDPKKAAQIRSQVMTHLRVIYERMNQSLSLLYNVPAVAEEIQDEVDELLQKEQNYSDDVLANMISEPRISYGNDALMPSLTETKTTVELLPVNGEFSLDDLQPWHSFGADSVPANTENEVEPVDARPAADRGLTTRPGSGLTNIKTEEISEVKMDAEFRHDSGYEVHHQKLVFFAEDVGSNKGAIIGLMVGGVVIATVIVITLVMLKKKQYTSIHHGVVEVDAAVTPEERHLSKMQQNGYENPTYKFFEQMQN

Columns and labels:
Aβ1-42 monomer = assay: ELISA, effect of coating concentration, monomer; type: binding
Text: (§1) Aβ1-42 concentration Aβ1-42 oligomer Aβ1-42 monomer
(§2) (µg/mL) (EC50, nM) (EC50, nM)

Aβ1-42 oligomer = assay: ELISA, effect of coating concentration, oligomers; type: binding
Text: as §1, §2

aducanumab = assay: ELISA of aducanumab on plates coated with truncated Aβ peptides; type: binding, human; details: for EC50: aducanumab on peptide coated or captured at 5 μg/mL (multivalent effects), antibody from 100 nM, 2 h room temperature, read-out: Binding activity (EC50); for Fold reduction (relative to Aβ1-42): reduction of aducanumab binding affinity, peptide 5 μg/mL
Method: For N-terminally truncated Aβ peptides, untagged peptides were used. For ELISA, 96-well microplates were coated with 5 μg/mL peptide in Coating Buffer (15 mM Na2CO3, 35 mM NaHCO3, pH 9.6) overnight at 4 °C. Plates were washed and non-specific binding sites were blocked with 2% BSA in PBS for 1 h at 25 °C. Serially diluted antibody starting from 100 nM in Assay Buffer (2% BSA in PBS) was added, and the plates were incubated for 2 h at room temperature. Binding was determined by incubation with an HRP-conjugated goat anti-human polyclonal antibody (Jackson ImmunoResearch) followed by measurement of HRP activity using Ultra TMB ELISA Colorimetric Substrate Solution (Thermo Fisher Scientific). For C-terminally truncated Aβ peptides, biotin-conjugated peptides were used. The biotin was attached synthetically to the C terminus of the protein by incorporation of a non-native lysine residue. For ELISA, biotin-conjugated peptides were incubated for 1 h at room temperature, at a concentration of 5 μg/mL in Assay Buffer, using plates that were pre-coated with neutravidin (Thermo Fisher Scientific, Reacti-Bind plates). Plates were washed, antibodies diluted serially in Assay Buffer were added, and binding was measured as described above.

[1] = Aβ1-42 coating concentration 0.1 μg/mL
[2] = Aβ1-42 coating concentration 1 μg/mL
[3] = Aβ1-42 coating concentration 10 μg/mL

Substance: aducanumab: recombinant human antibody targeting amyloid-β, derived from a blood lymphocyte library of healthy elderly donors
EC50 (Aβ1-42 monomer; [1]): 20 nM
EC50 (Aβ1-42 monomer; [2]): 0.16 nM
EC50 (Aβ1-42 monomer; [3]): 0.09 nM
EC50 (Aβ1-42 oligomer; [1]): 0.09 nM
EC50 (Aβ1-42 oligomer; [2]): 0.06 nM
EC50 (Aβ1-42 oligomer; [3]): 0.09 nM

Substance: 4–42: untagged N-terminally truncated Aβ peptide
EC50 (aducanumab): 15 nM
Fold reduction (relative to Aβ1-42) (aducanumab): 41 fold
Fold reduction (relative to Aβ1-42) (aducanumab; listed as Aβ4-42): > 40 fold

Substance: 1–12: C-terminally biotinylated truncated Aβ peptide, residues 1–12 (DAEFRHDSGYEV; Amyloid-beta protein 42 C-terminal biotin; UniProt P05067 672-683, looked up, fragment)
EC50 (aducanumab): 0.55 nM

The next lines start with results.

EC50 (aducanumab): 0.36 nM
Substance: 2–42: untagged N-terminally truncated Aβ peptide
Fold reduction (relative to Aβ1-42) (aducanumab): 1.0 fold
Fold reduction (relative to Aβ1-42) (aducanumab; listed as Aβ2-42): little impact

EC50 (aducanumab): 0.5 nM
Substance: 1–16: C-terminally biotinylated truncated Aβ peptide, residues 1–16 (DAEFRHDSGYEVHHQK; Amyloid-beta protein 42 C-terminal biotin; UniProt P05067 672-687, looked up, fragment)
Fold reduction (relative to Aβ1-42) (aducanumab): 1.3 fold
